This assay addresses T1, mTOR (Homo sapiens, UniProt P42345).
T1 construct: 2.5 μl of 0.6 μg/ml of mTOR Enzyme (Amgen) was added to rows 1-23
As to the kind of experiment: mTOR LanthaScreen (TR-FRET, phosphorylation of 4EBP1). It counts as biochemical. Particulars: read-out: AA11016+++mTor_MA_IC50_IP. As to the method: The mTOR LanthaScreen is a TR-FRET assay measuring the phosphorylation of mTOR's substrate 4EBP1. 384 well compound plates were prepared containing 1 μl of compound per well starting at 5 mM and diluted 1:2 across the row, resulting in a 22 well serial dilution.
The assay was conducted on the PerkinElmer® FlexDrop PLUS. A 5 μl mix of 800 nM GFP-4E-BP1 (Invitrogen, PV4759) and 20 μM ATP (Amgen) was added to rows 1-24. 2.5 μl of 0.6 μg/ml of mTOR Enzyme (Amgen) was added to rows 1-23. 2.5 μl of assay buffer was added to row 24 for the low control. […] The final concentrations in the assay reagents were 400 nM GFP-4E-BP1, 10 μM of ATP and 0.15 μg/ml of mTOR enzyme. The compound, enzyme, and substrate incubate for 90 minutes.
In general terms: In TR-FRET formats the signal depends on donor and acceptor labels being close together.

pIC50: −log10 of the molar value. Bounds are passed on as bounds.

For “methyl 1-(4-amino-6-methyl-1,3,5-triazin-2-yl)-2-((3-methoxyphenyl)amino)-1H-benzimidazole-6-carboxylate [Cpd 90]”, the pIC50 is less than 4.30.

Values taken from patent publication US20120165334A1, “Indole/Benzimidazole Compounds as mTOR Kinase Inhibitors” (AMGEN INC., priority 2009, published 2012).
